Bioassay records (PubChem BioAssay)
RAD54 inh: inhibitors of human RAD54 branch migration, primary screen, biochemical, fluorescence, single point | DNA repair and recombination protein RAD54-like (Homo sapiens), Q92698 | RAD54 Holliday junction branch migration, FAM/BHQ fluorescence | inhibition, % at 10.4 µM | 360,000 tested, 0.14% active;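 active = mean normalized replicate activity at least 40 and at least half of replicates scoring 40 or more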;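 note: 0% = median of neutral control wells and 100% = median of positive control wells; inhibitors cause a drop in the FAM fluorescence signal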
INS-1E GSIS act: GLuc luminescence reporter in INS-1E cells, primary screen for activators of glucose-dependent secretion of insulin. 370,000 tested, 0.61% active. activation, % at 16.6 µM. INS-1E GLuc reporter insulin secretion, 2-3 h;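 active = lowest replicate activation of at least 40%, so every replicate reaches that level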;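 note: 0% = median of neutral control wells and 100% = median of IBMX positive control wells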
PglD inh: C. jejuni PglD acetyltransferase inhibitors, primary screen, biochemical, DTNB colorimetric, single point; 360,000 tested, 0.098% active; AID 602405, 2012; purified PglD enzyme, DTNB colorimetric CoA detection; inhibition, % at 12.5 µM; in the data active = inhibition above about 16%, passing the limit was not always enough
UUG fidelity: yeast start codon fidelity modulation; activity score, % at 18.7 µM; actives 0.13% (n = 350,000); S. cerevisiae UUG-firefly luciferase reporter, luminescence/redox ratio; AID 602363;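 active means replicate mean at a twofold rise or more, about +100% in these data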;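 further: firefly luciferase made from a UUG start codon reports start codon fidelity; reporter light over untreated wells divided by growth signal over untreated wells; some hits fall short of that in this replicate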
RAD52 inh: RAD52 DNA annealing inhibitors, primary screen, biochemical, FRET, single point, set 2; DNA repair protein RAD52 homolog (Homo sapiens), P43351; recombinant RAD52 DNA annealing, FRET fluorescence; inhibition, % at 18.7 µM; 360,000 tested, 0.46% active;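 active = every replicate showing at least 50% inhibition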
Casp6 inh: human caspase-6 inhibitors, primary screen, biochemical, VEID-R110 fluorescence, single point, set 2; P55212; purified caspase-6, Z-VEID-R110 cleavage fluorescence; inhibition, % at 12.5 µM; 350,000 tested, 0.53% active; AID 686996, 2013;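 active = mean inhibition across replicates at least about 35%, with every replicate also reaching that limit, limit read from the data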;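 note: 0% = median of neutral control wells and 100% = no fluorescence left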
* = called active by the depositor; nt = no result; ! = not active in a repeat. Sampled rows, rich in hits. Any-hit rate of the full collection: about 1.5%.

SMILES | RAD54 inh | INS-1E GSIS act | PglD inh | UUG fidelity | RAD52 inh | Casp6 inh
C[C@H](CO)N1C[C@H](C)[C@@H](CN(C)C(=O)C2CC2)Oc2ncc(Br)cc2C1=O | nt | 13 | nt | -7 | nt | nt
C[C@@H]1CN([C@H](C)CO)C(=O)c2cc(Br)cnc2O[C@H]1CN(C)CC1CCCC1 | 6 | -1 | -5 | 0 | 1 | 62*
COc1ccccc1N1N=C(C(=O)c2ccccc2)C2C(=O)N(c3ccc(Br)cc3)C(=O)C21 (configuration not stated) | -20 | -9 | -2 | 2 | -139 | -1
CCN(CC)C(=O)C1CCN(S(=O)(=O)c2ccc(-n3cnnn3)cc2)CC1 | nt | 0 | nt | nt | -2 | -1
O=C(Nc1cccc(NC(=O)c2ccccc2Cl)c1)c1cccs1 | 5 | -16 | 0 | -23 | -7 | 2
Cc1ccc(NC(=O)c2cccs2)cc1NC(=O)c1ccccc1Cl | 5 | 167* | 4 | -11 | -6 | 0
O=C(Nc1ccc(NC(=O)C2CC2)cc1)c1cccs1 | 1 | 11 | -3 | -11 | -7 | 59*
O=C(Nc1nonc1NC(=O)c1cccs1)c1cccs1 | nt | 133* | nt | nt | -23 | 5
COc1ccc(NC(=O)Nc2ccc(Br)cn2)cc1 | nt | 6 | nt | nt | -8 | 0
O=C(COC(=O)c1ccc2ncsc2c1)NC(=O)NCc1ccccc1 | nt | 6 | nt | nt | -23 | 2
CCOC(=O)C1CCN(C(=O)COC(=O)c2ccc([N+](=O)[O-])o2)CC1 | 9 | 12 | 4 | 9 | -3 | 56*
CC1CC(C)CN(C(=O)COC(=O)c2ccc([N+](=O)[O-])o2)C1 (configuration not stated) | -6 | 6 | 4 | -12 | -10 | 22
CCOC(=O)C1=C(COC(=O)c2ccc([N+](=O)[O-])o2)NC(=O)NC1C (configuration not stated) | -3 | 5 | 2 | -21 | -11 | 43*
CCOC(=O)C1=C(COC(=O)/C=C/c2ccc(OC)c(OC)c2)NC(=O)NC1C (configuration not stated) | 0 | 31 | 1 | 1 | -14 | 10
CCOC(=O)C1=C(COC(=O)/C=C/c2ccc(O)c(OC)c2)NC(=O)NC1C (configuration not stated) | nt | 59* | nt | nt | -3 | 4
C=CCn1c(SCC(=O)Nc2ccc3c(c2)OCO3)nc2ccccc2c1=O | 9 | nt | -1 | -18 | nt | nt
CC(C)c1c(C(=O)N/N=C/c2cccc3ccccc23)nnn1-c1nonc1N | 4 | 75* | 3 | -13 | 2 | -6
CCCN1C(=O)C(=O)c2cc(C)ccc21 | -3 | -2 | 4 | -16 | -4 | 0
C/C(=N\NC(=O)c1cc(O)cc(O)c1)c1ccc(NC(=O)Cc2ccccc2)cc1 | 2 | -3 | -2 | -8 | -5 | 71*
O=C(NCCO)c1cc([N+](=O)[O-])cc2c1C=Cc1ccccc1O2 | nt | 0 | nt | nt | -16 | 1
O=C(O)c1cc([N+](=O)[O-])cc2c1C=Cc1ccccc1O2 | nt | 7 | nt | nt | -3 | 38*
O=C(O)CCC1(CCC(=O)O)CCCC(CCC(=O)O)(CCC(=O)O)C1=O | -1 | 47* | 2 | 2 | -9 | 9
O=C(Nc1nc2ccc(F)cc2s1)c1ccc([N+](=O)[O-])o1 | -5 | nt | -4 | -23 | 3 | -1
O=C(C1CCC1)N1C[C@@H]2N[C@H](C1)C2c1ccc(-c2ccccc2F)cc1 (some centres not stated) | nt | 9 | nt | nt | 5 | -1
O=C(C1CCCCC1)N1C[C@@H]2N[C@H](C1)C2c1ccc(-c2ccccc2F)cc1 (some centres not stated) | nt | -9 | nt | nt | 57*! | 1
Cc1cccc(-c2ccc(C3[C@@H]4CN(C(=O)C5CCCCC5)C[C@H]3N4)cc2)c1 (some centres not stated) | nt | 213*! | nt | nt | nt | nt
COc1cccc(-c2ccc(C3[C@@H]4CN(C(=O)C5CCCCC5)C[C@H]3N4)cc2)c1 (some centres not stated) | nt | -12 | nt | nt | -23 | -2
COc1ccc(N2CCN(S(=O)(=O)CCNC(=O)C(C)Oc3ccccc3)CC2)cc1 (configuration not stated) | 5 | 3 | 0 | 0 | -6 | -1
COc1ccc(CCN(C)C2CCCN(C(=O)c3ccnn3C)C2)cc1OC (configuration not stated) | -6 | 16 | -4 | -16 | -18 | -1
CC(=O)c1cc(O)c2ccccc2c1O | -9 | 1 | -11 | 0 | -31 | 38*
O=C1OC(c2ccccc2)=N/C1=C\C=C\c1ccco1 | nt | 3 | nt | nt | -31 | 56*
O=C1OC(c2ccc(Cl)cc2)=N/C1=C\C=C\c1ccco1 | nt | -13 | nt | nt | -22 | 64*
O=C1OC(c2ccccc2)=N/C1=C\C=C\c1ccccc1[N+](=O)[O-] | nt | 0 | nt | nt | -24 | 5
COc1ccc2c3c(n(C)c2c1)[C@@H](CO)NCC31CCN(S(=O)(=O)c2cccc(C)c2)CC1 | nt | -11 | nt | nt | 54* | 3
COc1ccc2c3c(n(C)c2c1)[C@H](CO)NCC31CN(Cc2cc(-c3ccccc3)on2)C1 | nt | -3 | nt | nt | 80* | nt
COc1ccc2c3c(n(C)c2c1)[C@@H](CO)NCC31CCN(S(=O)(=O)c2cccc(F)c2)CC1 | nt | 2 | nt | nt | nt | nt
COc1ccc2c3c(n(C)c2c1)[C@@H](CO)NCC31CCN(Cc2cc(-c3ccccc3)on2)CC1 | nt | 4 | nt | nt | 59* | -1
COc1ccc2c3c(n(C)c2c1)[C@H](CO)NCC31CN(CC2CCOCC2)C1 | nt | 14 | nt | nt | 76* | -28
COc1ccc2c3c(n(C)c2c1)[C@@H](CO)NCC31CN(Cc2cc(-c3ccccc3)on2)C1 | nt | 1 | nt | nt | 33 | nt
CCOP(=O)(OCC)c1nc(-c2cccc3ccccc23)oc1NCCc1ccc(OC)cc1 | 2 | -17 | 2 | 13 | -13 | 3
COc1cc(OC)c(C2C(C(=O)Nc3ccc(C)cc3C)=C(C)Nc3ncnn32)cc1OC (configuration not stated) | -4 | nt | 2 | -5 | nt | nt
COc1ccc2c3c(n(C)c2c1)[C@@H](CO)N(CC1CC1)CC31CCN(C(=O)CN(C)C)CC1 | nt | 4 | nt | nt | 73* | -45
COc1ccc2nc3ccccc3nc2c1NC(=O)c1ccc(Cl)cc1Cl | -16 | 87* | 1 | 8 | nt | nt
Cc1cc(C)nc(NC(=O)c2ccc(Cl)cc2Cl)n1 | -8 | 68* | 1 | -1 | -17 | -1
Cc1cccc(OCC(=O)Nc2ccc(NC(=O)c3ccco3)cc2)c1 | -5 | 75* | -2 | -16 | -3 | 6

Some of these compounds in order of SMILES length, largest number first:
SMILES | RAD54 inh | INS-1E GSIS act | PglD inh | UUG fidelity | RAD52 inh | Casp6 inh
COc1ccc2c3c(n(C)c2c1)[C@@H](CO)N(CC1CC1)CC31CCN(C(=O)CN(C)C)CC1 | nt | 4 | nt | nt | 73* | -45
COc1ccc2c3c(n(C)c2c1)[C@@H](CO)NCC31CN(Cc2cc(-c3ccccc3)on2)C1 | nt | 1 | nt | nt | 33 | nt
CCOP(=O)(OCC)c1nc(-c2cccc3ccccc23)oc1NCCc1ccc(OC)cc1 | 2 | -17 | 2 | 13 | -13 | 3
COc1ccc2c3c(n(C)c2c1)[C@H](CO)NCC31CN(CC2CCOCC2)C1 | nt | 14 | nt | nt | 76* | -28
Cc1cc(C)nc(NC(=O)c2ccc(Cl)cc2Cl)n1 | -8 | 68* | 1 | -1 | -17 | -1
